Values of other authors in publication PMC8179049, “Synthesis of 2-oxoglutarate derivatives and their evaluation as cosubstrates and inhibitors of human aspartate/asparagine-β-hydroxylase” (Chemical Science, 2020).

System: bovine AspH
Settings: cited from earlier work

## O=C(O)CCC(=O)C(=O)O [2OG, 2-Oxoglutarate]
  K app m (2OG) of bovine AspH: ~5 µM
